# Laboratory results reported in patent US20230263956A1, “INGESTIBLE DRUG DELIVERY DEVICE” (Massachusetts Institute of Technology, priority 2020, published 2023).
# Assay: In vivo testing: tethered device jetting insulin into the stomach wall
# Parameters: species or system Yorkshire pigs
# Conditions: jet of insulin into stomach wall, 0.5 Units per kilogram, three of the five device tests
# Procedure: Studies were performed by trained veterinary technicians at MIT's animal testing facilities. Yorkshire pigs weighing between 70 and 90 kg were used. All studies were terminal studies (meaning the animal was euthanized immediately afterward). FIG. 7 illustrates the use of a tethered device 100 which was used to deliver a jet of insulin to form depots 118 in the stomach wall of the animal. The testing protocol is described further below.
# During testing, a weight of the pig was determined, and a quantity of insulin was selected to achieve a dose of 0.5 Units per kilogram (1 Unit=0.0347 mg). The powder insulin was then added to a 0.1M NaOH solution, and PF68 and HEPES were used as stabilizing agents. From there 0.1M HCl was added to assist with dissolution of the insulin, and deionized water was added if further dilution was desired. […] This formulation procedure was carried out the morning or evening before each in vivo study, and the resulting solution it was stored at 4° C. until the time of administration.
# The device was loaded with API and CO2 in the operating room where the animal was sedated and intubated. […]
# Blood samples were collected by ear catheter or femoral catheter. […] The blood-glucose level was monitored at each draw using commercial glucose monitoring strips. […] The samples were then subsequently analyzed with a custom Ezyme-linked immunosorbent assay (ELISA) for […].
substance,measurement,value
insulin,blood-plasma insulin concentration,increase in blood-plasma insulin concentration
